This is an account of results in ChEMBL document CHEMBL3352598, “Synthesis, pharmacological evaluation and molecular modeling studies of triazole containing dopamine D3 receptor ligands” (Bioorg Med Chem Lett, 2015).

The species named for the test is Homo sapiens. The experiment in a line: Selectivity index, ratio of Ki for D4 receptor to Ki for human D3 receptor.

Regarding `COc1ccccc1N1CCN(CCCCNC(=O)c2ccc(CCF)cc2)CC1`, the Ratio Ki was determined as 335.
